This note sets out measurements from patent publication US20170340689A1, “TITRATED EXTRACTS OF CYNARA SCOLYMUS FOR USE IN THE TREATMENT OF MESOTHELIOMA” (ABOCA S.P.A SOCIETÀ AGRICOLA, priority 2014, published 2017).

In the assay the test system is MSTO211H and NCI-H2052. Put plainly: ATPlite cell vitality assay in co-treatment with pemetrexed, MPM lines. Type of assay: cell-based, human. Conditions: 72 h, extract at non-cytotoxic dose 6 μg/ml. The text has this:
4.1 Association of Extract of Cynara Spp. and Pemetrexed with ATPlite™ Assay
A general note: In ATP-based viability assays light output follows the ATP content of the culture.

As for `Nc1nc2[nH]cc(CCc3ccc(C(=O)N[C@@H](CCC(=O)O)C(=O)O)cc3)c2c(=O)[nH]1` [PMTX, pemetrexed], the “cell vitality of MPM cell lines, pemetrexed alone or with extract” value is “cytotoxic for the MPM cells”.
